The text below walks through data of US20110039873A1, “SUBSTITUTED PYRAZOLO[1,5-a] PYRIDINE COMPOUNDS HAVING MULTI-TARGET ACTIVITY” (priority 2009, published 2011).

Sequences of proteins named here, by UniProt entry; tags and fusion partners are left off. Residues count along the entry.
UniProt Q9Y233, 1-779 isoform Q9Y233-1: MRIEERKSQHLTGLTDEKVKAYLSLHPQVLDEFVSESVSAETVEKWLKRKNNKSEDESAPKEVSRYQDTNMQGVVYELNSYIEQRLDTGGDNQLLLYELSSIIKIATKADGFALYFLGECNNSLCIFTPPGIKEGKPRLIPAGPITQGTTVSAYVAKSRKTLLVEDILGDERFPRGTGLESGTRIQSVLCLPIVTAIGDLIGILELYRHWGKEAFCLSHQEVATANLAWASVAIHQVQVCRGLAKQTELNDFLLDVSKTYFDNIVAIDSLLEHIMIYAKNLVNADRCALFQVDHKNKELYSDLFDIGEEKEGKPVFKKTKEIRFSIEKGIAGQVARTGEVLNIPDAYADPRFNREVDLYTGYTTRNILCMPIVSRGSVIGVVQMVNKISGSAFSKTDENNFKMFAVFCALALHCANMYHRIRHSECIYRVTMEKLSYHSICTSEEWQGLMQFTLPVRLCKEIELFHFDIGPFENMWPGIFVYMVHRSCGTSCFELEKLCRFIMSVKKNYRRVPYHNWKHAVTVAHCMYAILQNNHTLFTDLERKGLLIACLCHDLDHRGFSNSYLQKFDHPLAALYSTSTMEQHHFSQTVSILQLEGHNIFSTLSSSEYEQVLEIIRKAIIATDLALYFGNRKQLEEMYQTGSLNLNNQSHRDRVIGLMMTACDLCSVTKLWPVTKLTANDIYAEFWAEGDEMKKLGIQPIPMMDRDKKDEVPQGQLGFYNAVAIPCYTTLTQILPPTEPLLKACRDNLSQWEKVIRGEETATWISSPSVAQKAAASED

The experiment concerns the target T1, recombinant human phosphodiesterase 10A1 enzyme (Homo sapiens, UniProt Q9Y233).
T1 construct: purchased BPS Biosciences; host or cells: Baculovirus infected Sf9 cells
As to the kind of experiment: PDE10 inhibition assay (PDELight). Format: biochemical. The protocol: In a 96-well plate, recombinant human phosphodiesterase 10A1 enzyme (10 U/well) expressed in Baculovirus infected Sf9 cells (BPS Biosciences) was combined with 1 uM cAMP substrate (Sigma). […] Using a PDELight® kit (Cambrex), the amount of AMP produced in the reaction from the hydrolysis of cAMP was quantified using PDELight AMP Detection Reagent which converts the AMP directly to ATP. The assay uses luciferase, which catalyses the formation of light from the newly formed ATP and luciferin. The luminescence was read on a Victor Light 1420 luminometer. IC50 calculations were plotted using a nonlinear regression curve fit.

Turning to `COc1ccc(Cc2nccc3cc(OC)c(OC)cc23)cc1OC` [Papaverine, reference compound], the half-inhibitory concentration (IC50) was in the range of 0.3 to 3.7 µM.

As usually defined, the IC50 is the midpoint of a concentration-inhibition curve.
